Assay results from PubChem BioAssay AID652154 (Broad Institute, 2013).
This is a selection; strong and weak results do not stand in their true shares. Calls of active or inactive are those of the source.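 How the source made its calls: active means mean replicate inhibition at least 60% with every replicate also reaching 60%; inconclusive means only one of the two criteria is met; inactive means mean below 60% and not all replicates reaching 60%.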

Assay: PAX8 transcriptional activity inhibition in RMG-I – RMG-I cells, luciferase, single concentration, primary screen (AID 652154);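 further: luciferase light reporting Pax8 driven TPO promoter activity; plate controls were median of neutral control wells for no effect and mitoxantrone controls for full effect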
Settings: RMG-I TPO-luciferase reporter, SteadyGlo, 24 h; at 12.6 µM; active compounds read high
For `COc1ccccc1OP(C)(=O)Nc1cccc(Br)c1` (stereo not drawn), the inhibition was inactive: 11.4%.
In the case of `CCOC(=O)c1ccc(NP(C)(=O)Oc2cc(C)cc(C)c2)cc1` (stereo not drawn), the inhibition was inactive: 17.5%.
In the case of `CC1=NCCc2c1[nH]c1ccccc21.O=[N+]([O-])c1cc([N+](=O)[O-])c(O)c([N+](=O)[O-])c1`, the inhibition was inactive: -9.43%.
With `O=C(O)c1cccc(Nc2c([N+](=O)[O-])cc([N+](=O)[O-])cc2[N+](=O)[O-])c1` the inhibition was inactive: -1.05%.
With `CCOC(=O)c1ccc(NP(C)(=O)Oc2ccccc2)cc1` (stereo not drawn) the inhibition was inactive: -7.97%.
For `Cc1ccc(NP(C)(=O)Oc2ccccc2)c(C)c1` (stereo not drawn), the inhibition was inactive: 17.2%.
With `COc1ccc(OP(C)(=O)Nc2cccc(F)c2)cc1` (stereo not drawn) the inhibition was inactive: 2.12%.
With `COc1ccccc1OP(C)(=O)Nc1cc(Cl)ccc1C` (stereo not drawn) the inhibition was inactive: 14.4%.
For `Cc1cc(C)cc(OP(C)(N)=O)c1` (stereo not drawn), the inhibition was inactive: 12.5%.
In the case of `O=[N+]([O-])c1cc([N+](=O)[O-])c(Nc2cccnc2)c([N+](=O)[O-])c1`, the inhibition was inactive: 35.9%.
With `Cc1cccc(C)c1OP(C)(N)=O` (stereo not drawn) the inhibition was inactive: 2.07%.
In the case of `CC(C)(C)c1ccc(OP(C)(=O)Nc2ccc(SC(F)(F)F)cc2)cc1` (stereo not drawn), the inhibition was inactive: -0.397%.
For `O=[N+]([O-])c1ccc2c(c1)C=Nc1ccccc1O2`, the inhibition was inactive: -2.08%.
In the case of `COc1ccccc1-c1ccccn1.O=[N+]([O-])c1cc([N+](=O)[O-])c(O)c([N+](=O)[O-])c1`, the inhibition was inactive: 4.76%.
With `CCN(CC)CCCOC(=O)C(O)(c1ccccc1)c1ccccc1` the inhibition was inactive: -24.4%.
With `CCOC(=O)c1ccc(NP(C)(=O)Oc2ccc(OC)cc2)cc1` (stereo not drawn) the inhibition was inactive: 31.2%.
With `O=[N+]([O-])c1cc([N+](=O)[O-])c(O)c([N+](=O)[O-])c1.c1ccc(Oc2ccncc2)cc1` the inhibition was inactive: 3.1%.
With `CP(=O)(Oc1ccccc1)OC(c1ccccc1)C(F)(F)F` (stereo not drawn) the inhibition was inactive: -3.53%.
With `Cc1cccc(C)c1OP(C)(=O)Nc1ccc(SC(F)(F)F)cc1` (stereo not drawn) the inhibition was inactive: 0.113%.
With `CP(=O)(Nc1ccc(SC(F)(F)F)cc1)Oc1ccc(Cl)cc1` (stereo not drawn) the inhibition was inactive: 13.8%.
With `CCc1ccc(OP(C)(=O)N2CCN(c3ccc([N+](=O)[O-])cc3)CC2)cc1` (stereo not drawn) the inhibition was inactive: 0.343%.
For `COc1ccccc1OP(C)(=O)Nc1ccccc1` (stereo not drawn), the inhibition was inactive: 16.8%.
For `CP(=O)(Nc1ccccc1Br)Oc1ccccc1` (stereo not drawn), the inhibition was inactive: 29.9%.
